Laboratory results taken from PubChem BioAssay AID1645886 (National Center for Advancing Translational Sciences (NCATS), 2021).
Only a part is listed here, and it is no random draw. Results filed as inconclusive are left out. Calls of active or inactive are those of the source. Calls follow the shape of the dose curve; as a rule, active = well fitted inhibition curve with a large enough effect; inconclusive = small, poorly fitted or top-dose-only effect; inactive = no such curve, though single readings can be large or run the other way.

Chains of the proteins cited; added tags and fusions are not shown.
UniProt Q8WZA2, whole entry: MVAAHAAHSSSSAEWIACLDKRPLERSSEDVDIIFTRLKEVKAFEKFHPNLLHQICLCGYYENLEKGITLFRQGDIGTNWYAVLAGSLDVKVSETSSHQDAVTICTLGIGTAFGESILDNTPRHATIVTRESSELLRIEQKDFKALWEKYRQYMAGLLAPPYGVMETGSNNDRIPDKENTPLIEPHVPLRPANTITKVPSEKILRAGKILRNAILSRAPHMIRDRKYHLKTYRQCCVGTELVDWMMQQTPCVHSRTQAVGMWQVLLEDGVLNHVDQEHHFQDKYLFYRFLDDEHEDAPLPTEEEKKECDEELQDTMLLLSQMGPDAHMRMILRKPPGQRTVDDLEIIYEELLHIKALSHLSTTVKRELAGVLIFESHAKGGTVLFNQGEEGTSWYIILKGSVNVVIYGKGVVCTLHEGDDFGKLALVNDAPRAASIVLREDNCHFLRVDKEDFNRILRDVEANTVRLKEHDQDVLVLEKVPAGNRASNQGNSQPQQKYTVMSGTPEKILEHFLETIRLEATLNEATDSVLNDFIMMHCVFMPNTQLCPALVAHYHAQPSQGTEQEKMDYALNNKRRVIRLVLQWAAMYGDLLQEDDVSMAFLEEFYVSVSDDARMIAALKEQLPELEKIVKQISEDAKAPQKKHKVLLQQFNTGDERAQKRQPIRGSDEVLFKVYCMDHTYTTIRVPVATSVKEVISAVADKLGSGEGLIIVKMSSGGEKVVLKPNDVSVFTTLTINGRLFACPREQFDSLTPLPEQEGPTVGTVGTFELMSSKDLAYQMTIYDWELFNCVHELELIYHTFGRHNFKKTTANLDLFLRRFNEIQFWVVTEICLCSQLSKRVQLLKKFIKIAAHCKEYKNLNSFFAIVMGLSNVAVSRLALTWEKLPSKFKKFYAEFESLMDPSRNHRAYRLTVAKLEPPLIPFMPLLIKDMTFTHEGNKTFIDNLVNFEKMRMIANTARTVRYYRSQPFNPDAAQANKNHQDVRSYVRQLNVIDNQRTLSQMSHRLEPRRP

Target: Rap guanine nucleotide exchange factor 4 (Homo sapiens) (UniProt Q8WZA2)
Experiment: Validation qHTS for antagonist of cAMP-regulated guanine nucleotide exchange factor 4 (EPAC2);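 also: 100% = activation by cAMP agonist control; nearly all actives have a fitted effect of over 40% in size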
Settings: EPAC2 Rap1B BODIPY-GDP exchange, fluorescence; at 239 µM (top of the series)
Text: Principle Investigator: Xiaodong Cheng Ph.D. The University of Texas Medical Branch, […], TX MLPCN Grant: NS066510 In multi-cellular eukaryotic organisms, the effects of cAMP are transduced by two ubiquitously-expressed intracellular cAMP receptors, the classic protein kinase A/cAMP-dependent protein kinase (PKA/cAPK) and the more recently discovered exchange protein directly activated by cAMP/cAMP-regulated guanine nucleotide exchange factor (EPAC/cAMP-GEF). Both PKA and EPAC are ubiquitously expressed in all tissues, and an increase in intracellular cAMP levels will lead to the activation of both PKA and EPAC. […] This qHTS will be used to screen the Molecular Libraries Small Molecule Repository (MLSMR) as a concentration-titration series using the NCGC unique quantitative screening (qHTS) platform to find activators for EPAC1. […] Activators are identified by monitoring the change in fluorescence signal as the exchanged free BODIPY-GDP has a reduced fluorescence compared to Rap1-bound BODIPY-GDP. […]
Briefly, three uL of reagents (100 nM EPAC2, 250 nM RAP1B-BODIPY-GDP, 50 uM GDP) were dispensed into a 1536-well Greiner black solid-bottom medium binding assay plate. […] The assay plates were read at 5 minute intervals for 30 minutes in the ViewLux plate reader using 480nm excitation and 540nm emission filters. […]

| SMILES | activity, negative = inhibition |
| --- | --- |
| Cc1cc([N+](=O)[O-])cc([N+](=O)[O-])c1O | inactive: -27.8% |
